Experimental data taken from paper PMC12114633, “α-Glucosidase Inhibition Mechanism and Anti-Hyperglycemic Effects of Flavonoids from Astragali Radix and Their Mixture Effects” (Pharmaceuticals, 2025).

Protein sequences, listed by entry. Tags and fused reporters are not part of them. Lines headed by an entry give the natural chain unless they say otherwise; changes in a name come on top.
UniProt P53341: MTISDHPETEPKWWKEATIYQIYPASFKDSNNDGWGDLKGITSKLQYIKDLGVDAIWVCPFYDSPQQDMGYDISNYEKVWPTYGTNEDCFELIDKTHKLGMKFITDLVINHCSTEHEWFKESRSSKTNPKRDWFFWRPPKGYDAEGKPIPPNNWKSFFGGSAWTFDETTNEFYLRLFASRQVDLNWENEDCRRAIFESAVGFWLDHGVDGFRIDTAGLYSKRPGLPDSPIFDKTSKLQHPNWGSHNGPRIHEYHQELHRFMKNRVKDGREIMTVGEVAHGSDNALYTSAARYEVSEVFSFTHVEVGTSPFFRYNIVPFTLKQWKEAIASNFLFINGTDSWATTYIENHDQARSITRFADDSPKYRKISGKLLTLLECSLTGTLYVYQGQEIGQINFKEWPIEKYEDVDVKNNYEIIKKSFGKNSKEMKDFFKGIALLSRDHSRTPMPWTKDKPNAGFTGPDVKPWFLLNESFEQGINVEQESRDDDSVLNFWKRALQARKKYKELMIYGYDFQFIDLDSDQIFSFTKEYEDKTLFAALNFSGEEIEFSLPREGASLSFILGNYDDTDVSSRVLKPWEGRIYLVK

Tests used:
[1] = biological target: T1, Saccharomyces cerevisiae α-glucosidase (Saccharomyces cerevisiae, UniProt P53341); experiment: biochemical; conditions: IC50, α-glucosidase 0.2 U/mL, 5 mM pNPG, PBS pH 6.8, 37 °C
T1 construct: purchased Shanghai Yuanye Biotechnology Co., Shanghai, China Lot No. M23HS178879 (catalogue number not given)
Procedure: The α-glucosidase inhibitory effects of flavonoids were evaluated as in a previous report with slight modifications (including changes in the concentrations of the enzyme, substrate, and Na2CO3). Briefly, 50 μL of phosphate-buffered saline (PBS, 0.1 M, pH 6.8), the test compound, and α-glucosidase (0.2 U/mL) were preincubated in a 96-well plate at 37 °C for 10 min. The reaction was then initiated by adding 50 μL of 5 mM pNPG as the substrate. Subsequently, the 96-well plate was incubated for an additional 30 min at 37 °C, then 50 μL of 0.2 M Na2CO3 was added to terminate the reaction. Absorbance was measured at under 405 nm.

α-glucosidase = biological target: T2, α-glucosidase (Saccharomyces cerevisiae, UniProt P53341); experiment: biochemical; type: binding
T2 construct: purchased Shanghai Yuanye Biotechnology Co., Shanghai, China Lot No. M23HS178879 (catalogue number not given)
Procedure: SPR analysis was performed using the Biacore 8K system (GE Healthcare, Uppsala, Sweden). α-Glucosidase (0.05 mg/mL) was fixed on the CM5 sensor chip by an amine coupling kit. Subsequently, various concentrations of the 16 flavonoids dissolved in 5% DMSO were continuously injected onto the surface of α-glucosidase coated surface. After each sample injection, the sensor chip surface was washed and regenerated with running buffer (PBS) at a flow rate of 30 µL/min. According to the 1:1 Langmuir model, the equilibrium dissociation constant (KD) was calculated by the Biacore evaluation software. For sensorgrams without significant kinetic features, the KD values were calculated using the steady-state analysis.

## O=C1C[C@@H](c2ccc(O)cc2)Oc2cc(O)cc(O)c21 [C5, naringenin]
[1]
  IC50: 226 ± 36.1 µM
α-glucosidase
  Kd: 294 µM
